# What was measured:
# [1] = tested on: Gli-dependent luciferase reporter; test: Gli-dependent luciferase reporter assay in EAC cell lines; type: cell-based, human
# Experimental: Because Gli protein activity is a useful readout for the HH pathway (Jiang and Hui, 2008), the inventors employed a Gli-dependent luciferase reporter system (Sasaki et al., 1997) to evaluate the influence of TNFα on the HH pathway in three EAC cell lines, BE3, SKGT-4, and OE33 (Boonstra et al., 2010). […] Then, the inventors compared the activity of HH pathway in EAC cells stimulated by SHH or TNFα.
# Cells were seeded in six-well plates and transfected with GliBS or mGliBS combined with CMV-Renilla vector as an internal standard. After overnight (12-16 hr) transfection, the cells were used for further experiments. After treatment, the cells were rinsed with PBS and subjected to luciferase assay using a dual-luciferase reporter assay system (Promega) based on the manufacturer's instruction.
# [2] = tested on: EAC cell lines and BE3 Gli1 stable clones; test: IC50 evaluation for cyclopamine and GDC-0449 (cell growth); type: cell-based, human; details: 48 hr
# Experimental: FIGS. 7A-7G. Effects of mTOR and/or HH pathway inhibitors on EAC cells. FIG. 7A. The expression of activated SHH (SHH-N) in EAC cell lines and the cell culture medium. FIG. 7B. The mRNA levels of Gli1 target genes in EAC cell lines with or without SHH treatment (1 μg/mL). The mRNA levels of Gli1 target genes are normalized to ACTIN. Error bars represent SD (n=3). FIG. 7C. IC50 of cyclopamine (top two panels) or GDC-0449 (bottom two panels) for the Gli1 stable clones. Error bars represent SD (n=4). FIG. 7D. IC50 of cyclopamine (top two panels) or GDC-0449 (bottom two panels) for the Gli1 stable clones with existence of TNFα (5 ng/mL). Error bars represent SD (n=4). FIG. 7E. IC50 of cyclopamine (top two panels) or GDC-0449 (bottom two panels) for EAC cells pre-treated with rapamycin (Rapa, 10 nM). Error bars represent SD (n=4). FIG. 7F. IC50 of cyclopamine (top two panels) or GDC-0449 (bottom two panels) for the Gli1 stable clones with rapamycin (Rapa, 50 nM) treatment. Error bars represent SD (n=4). FIG. 7G. In vivo combination therapy for subcutaneously inoculated tumors from BE3 cells using GDC-0449 (50 mg/kg) or RAD001 (10 mg/kg). […] The tumor volume measured and calculated using the formula: l×w^2, where l is the longest diameter and w is the shortest diameter. […]
smiles,measurement,setting,value
CC1=C2C[C@H]3[C@@H](CC=C4C[C@@H](O)CC[C@@]43C)[C@@H]2CC[C@]12O[C@@H]1C[C@H](C)CN[C@H]1[C@H]2C [cyclopamine],constitutive activation of HH pathway in EAC cell lines,"[1]; Gli reporter, EAC cell lines, FIG. 9A",can be inhibited
same,mTOR/S6K1-mediated Gli1 activation,[1]; SMO inhibitors,had little effects
same,TNFα-induced Gli activity,"[1]; TNFα 5 ng/mL, 24 hr, cyclopamine 0.5, 1, 5 μM, rapamycin 10, 50, 100 nM, WYE-354 10, 20, 40 nM",did not affect
same,"IC50 value in BE3/S84E compared with BE3/EV, BE3/Gli1 and BE3/S84A",[2],much higher
